Measurements as given in patent US12637430B2, “Interleukin-17 (IL-17) inhibitors” (priority 2020, dated 2026).

Amino acid sequences for entries named in this document (tags omitted). Residues count along the entry.
UniProt Q16552, 20-155 limits assumed: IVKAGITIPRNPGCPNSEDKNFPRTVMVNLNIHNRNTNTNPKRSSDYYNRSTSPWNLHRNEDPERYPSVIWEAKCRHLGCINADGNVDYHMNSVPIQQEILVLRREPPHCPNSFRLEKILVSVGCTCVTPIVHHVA
UniProt Q16552, 24-155 limits assumed: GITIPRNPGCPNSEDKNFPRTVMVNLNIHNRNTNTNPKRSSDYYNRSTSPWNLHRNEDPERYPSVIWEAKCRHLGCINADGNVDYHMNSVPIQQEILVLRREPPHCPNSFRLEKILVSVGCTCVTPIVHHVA

What was measured:
human IL-17A [1] = molecular target: T1, human IL-17A (Homo sapiens, UniProt Q16552); assay: Inhibition of chemokine GROα/CXCL1 generation induced by human IL-17A protein in HT-29 cell; format: cell-based; settings: read-out: HT-29 IC50; GROα/CXCL1 in HT-29 supernatant, 30 ng/mL human IL-17A, 48 hours
Procedure: HT-29 (Zhongyuan Gongchuang Technology Co., Ltd. of Chengdu, Sichuan) was added to a 96-well plate at 5×10^4 cells/well, and cultured overnight in a incubator at 37° C. A mixture of 30 ng/mL of human IL-17A protein (R&D, #317-ILB) and IL-17A small molecule inhibitors with gradient concentrations or 0.3 μg/mL of positive control IL-17A antibody (R&D, #AF-317-NA) was incubated at 37° C. for 1 h, and then added to the above-mentioned 96-well plate, and incubated with HT-29 cells at 37° C. for 48 hours. Then the GROα level in the cell culture supernatant was detected by an ELISA kit (Cisbio, #62HCXC1PEG) of the GROα.
According to the methods described in Experimental Examples 1 and 2, the compounds prepared in the above-mentioned examples were subjected to the experiment on inhibition of chemokine GROα/CXCL1 generation induced by human IL-17A protein in HT-29 cell.

human IL-17A [2] = molecular target: T1, human IL-17A; assay: IL-17A enzyme-linked immunosorbent assay (competitive ELISA, IL-17A/IL-17R binding); settings: read-out: ELISA IC50, IL-17A coated, 16 nM IL-17R
Procedure: The inhibition of receptor-ligand binding by human IL-17A inhibitors was quantified by competitive ELISA. 0.2 μg/mL of IL-17A (Sino Biological Inc. Cat #12047-H07B) was added in a 96-well plate at 100 μl per well for incubation for 30 min under 37° C. The 96-well plate was washed with PBST (PBS, 0.05% Tween-20) at 200 μl per well for 4 times, and then added with 200 μl of 5% skim milk and placed on a shaker for incubation at 25° C. for 30 min. The compound to be tested was prepared at 100× concentration ranging from 0.003 μM to 30 μM. After washed with PBST (PBS, 0.05% Tween-20) 4 times, the plate was added with 89 μl of PBST and 1 μl of the compound to be tested at 100× concentration followed by uniformly mixing and pre-incubation at 25° C. for 10 min. Then the plate was added with 10 μl of 16 nM IL-17R, and incubated on a shaker at 25° C. for 30 min. After washed for 4 times, the plate was added with 100 μl of anti-Fc-tag horseradish peroxidase (HRP)-conjugated antibody, and incubated on a shaker at 25° C. for 30 min. After washed 4 times, the plate was added with 100 μl of 3,3′, 5,5″-tetramethylbenzidine (TMB) substrate solution, and incubated at 25° C. in the dark. Then the plate was added with 20% HCl, followed by detection of the light absorption value at a wavelength of 450 nm by a microplate reader. […]

Structure (SMILES) | IC50 (human IL-17A [1]) | IC50 (human IL-17A [2])
CCn1nccc1C(=O)N[C@H](C(=O)Nc1cnc(-c2c(C)n[nH]c2C)c(F)c1)C(C1CC1)C1(C)CC1 (stereo partly shown) | 203 nM | 26 nM
Cn1nccc1C(=O)N[C@H](C(=O)Nc1ccc(C2CCOCC2)nc1)[C@H](c1ccccc1Cl)C1(C)CC1 | 2000 nM | 7 nM
